## Antibody variant affinities, Ab-14 light chain, assay 1

Target peptide (SARS-CoV-2 spike, HR2 region): PDVDLGDISGINAS

Each scFv is VH, a (GGGGS)3 linker, VL, as in the parent Ab-14, and differs from it in the CDRs of the light chain only.
VH: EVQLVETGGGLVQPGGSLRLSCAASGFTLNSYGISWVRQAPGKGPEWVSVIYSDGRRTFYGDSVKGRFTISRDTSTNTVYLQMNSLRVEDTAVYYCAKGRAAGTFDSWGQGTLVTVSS
VL: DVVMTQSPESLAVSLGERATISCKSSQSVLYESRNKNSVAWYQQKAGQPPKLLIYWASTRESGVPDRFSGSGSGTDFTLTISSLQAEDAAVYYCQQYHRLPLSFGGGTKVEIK

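The parent was found by panning a naive human phage display library on the peptide. The library (AAYL50) carries one to three amino acid substitutions per variant, with no insertions or deletions. In AlphaSeq, yeast of one mating type display the scFv and yeast of the other type display the target. After mating in shaken culture at 30 °C for 16 h, diploids were selected and their barcode pairs sequenced. Each replicate has its own calibration line, from reference interactions of the BCL2 family. There are three technical replicates.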

Sequences are complete VL domains.
All variants listed here change R99 of the VL, counted from its first residue.
Affinities are written as log10 Kd with Kd in nM; a lower number is a better binder.
"nd" marks a missing value. The strain was present, yet no cells mated with the target were sequenced in that replicate, which points to weak or no binding.
Empty control strains, which show no peptide, gave a signal in 18% of pairings with library AAYL50; the median was 4.19 and 95% of these signals were weaker than 2.99. No background was subtracted. The control count says in how many pairings with the empty strains this scFv gave a signal.

With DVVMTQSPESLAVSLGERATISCKSSQCVLYESRNKNSVAWYQQKAGQPPKLLIYWASTRESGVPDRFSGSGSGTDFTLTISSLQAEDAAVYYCAQYHMLPLSFGGGTKVEIK the result was 3.94, nd, 4.60 (controls 5 of 9). Variant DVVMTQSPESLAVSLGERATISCKSSQSVLYESRNKNSVDWYQQKAGQPPKLLIYWASTRESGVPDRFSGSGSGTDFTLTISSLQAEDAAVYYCQQYHELPLRFGGGTKVEIK showed nd, nd, nd (controls 0 of 9). Variant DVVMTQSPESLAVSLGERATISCKSSQSVLYESWNKNSVAWYQQKAGQPPKLLIYWASTRESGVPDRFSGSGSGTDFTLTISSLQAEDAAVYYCQQYHWIPLSFGGGTKVEIK gave nd, nd, 3.70 (controls 2 of 9). For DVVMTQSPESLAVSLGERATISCKSSQSVLYESRNKNMVAWYQQKAGQPPKLLIYWAKTRESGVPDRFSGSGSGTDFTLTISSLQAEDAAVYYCQQYHCLPLSFGGGTKVEIK, the assay gave nd, 2.80, nd (controls 0 of 9). With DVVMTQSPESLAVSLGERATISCKSSQSVLYESRNKNSVAWYQQKAGQPPKLLIYWTSTRESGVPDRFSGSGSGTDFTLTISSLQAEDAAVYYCQQYHMQPLSFGGGTKVEIK the result was 3.91, nd, nd (controls 1 of 9). Variant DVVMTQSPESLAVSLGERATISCLSSQSVSYESRNKNSVAWYQQKAGQPPKLLIYWASTRESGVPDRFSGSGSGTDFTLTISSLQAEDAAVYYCQQYHPLPLSFGGGTKVEIK showed nd, nd, nd (controls 0 of 9). Variant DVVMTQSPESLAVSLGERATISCKSSQSVLYESRNQNSVAWYQQKAGQPPKLLIYQASTRESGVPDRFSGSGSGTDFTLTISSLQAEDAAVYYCQQYHILPLSFGGGTKVEIK showed 0.04, 0.34, 0.08 (controls 1 of 9). For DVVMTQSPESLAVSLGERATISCKSSQSVLYESRNPNSVAWYQQKAGQPPKLLIYWASTRESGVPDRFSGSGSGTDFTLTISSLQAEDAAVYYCQQYQGLPLSFGGGTKVEIK, the assay gave 1.02, 1.32, 1.22 (controls 1 of 9). Variant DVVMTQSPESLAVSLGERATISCKSSQSVLYESRNKNSHAWYQQKAGQPPKLLIYWASTRESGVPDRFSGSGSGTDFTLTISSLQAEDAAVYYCQQYHALPMSFGGGTKVEIK gave nd, nd, nd (controls 1 of 9).

Variant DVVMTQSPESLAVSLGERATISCKSSQQVLYESRNKNSVAWYQQKAGQPPKLLIYWASTRESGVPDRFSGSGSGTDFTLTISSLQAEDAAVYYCQQYHMLPLYFGGGTKVEIK showed nd, nd, nd (controls 2 of 9). Variant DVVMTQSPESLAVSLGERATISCKSWYSVLYESRNKNSVAWYQQKAGQPPKLLIYWASTRESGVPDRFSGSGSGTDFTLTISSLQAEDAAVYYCQQYHSLPLSFGGGTKVEIK gave 2.29, nd, nd (controls 1 of 9). For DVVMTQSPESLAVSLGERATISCKSSQSVLYESRNKNSVAWYQQKAGQPPKLLIYWASTRESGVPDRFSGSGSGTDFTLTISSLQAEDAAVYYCQQVHNLPLSFGGGTKVEIK, the assay gave nd, nd, nd (controls 1 of 9). Variant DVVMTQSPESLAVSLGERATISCKSSQSVPYESRNKNSVAWYQQKAGQPPKLLIYWASTRESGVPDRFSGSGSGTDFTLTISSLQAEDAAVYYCQQYHCPPLSFGGGTKVEIK showed 0.48, 0.58, 0.96 (controls 1 of 9). Variant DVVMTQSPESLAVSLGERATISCKSSQSVLYESRNKNSNAWYQQKAGQPPKLLIYMASTRESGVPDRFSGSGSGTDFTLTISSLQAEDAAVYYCQQYHCLPLSFGGGTKVEIK showed 3.20, nd, nd (controls 1 of 9). Variant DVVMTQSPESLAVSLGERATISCKSSQSVLYESRNKNSVAWYQQKAGQPPKLLIYWASTRESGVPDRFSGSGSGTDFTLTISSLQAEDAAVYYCQQYAVLPLSFGGGTKVEIK showed 1.05, 1.14, 1.26 (controls 2 of 9). For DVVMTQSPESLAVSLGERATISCKSSQSVLYESRNKNSVAWYQQKAGQPPKLLIYGASTRESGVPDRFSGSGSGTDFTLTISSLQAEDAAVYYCQQYHGTPLSFGGGTKVEIK, the assay gave nd, 2.18, nd (controls 0 of 9). Variant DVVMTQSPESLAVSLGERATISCKSSQSVLYESGNKNSVAWYQQKAGQPPKLLIYWASTRESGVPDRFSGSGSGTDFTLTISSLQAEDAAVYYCSQYHNLPLSFGGGTKVEIK showed 0.43, 0.52, 0.32 (controls 5 of 9). Variant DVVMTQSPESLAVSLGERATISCKSSQSVLYESRRKNSVAWYQQKAGQPPKLLIYWASTRESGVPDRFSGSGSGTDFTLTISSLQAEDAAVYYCQQYHPLPLSFGGGTKVEIK gave 1.85, 1.82, 2.51 (controls 0 of 9).

For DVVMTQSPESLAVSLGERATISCKSSQSVLYESRVKNSVAWYQQKAGQPPKLLIYWASTRESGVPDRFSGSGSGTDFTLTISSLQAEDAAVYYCVQYHVLPLSFGGGTKVEIK, the assay gave nd, nd, nd (controls 0 of 9). For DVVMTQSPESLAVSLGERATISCKSSQSVLYRSRNKNSVAWYQQKAGQPPKLLIYWASTRESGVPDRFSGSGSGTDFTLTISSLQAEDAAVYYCQQLHDLPLSFGGGTKVEIK, the assay gave 1.34, 1.41, 2.15 (controls 0 of 9). Variant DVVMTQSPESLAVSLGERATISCKSSQSVLYESRNKNSVAWYQQKAGQPPKLLIYWASTAWSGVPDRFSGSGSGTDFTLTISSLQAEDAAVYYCQQYHDLPLSFGGGTKVEIK gave 4.08, 3.14, nd (controls 2 of 9). Variant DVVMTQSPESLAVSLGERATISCKSSQSVLYESRNKNSVAWYQQKAGQPPKLLIYEASTRESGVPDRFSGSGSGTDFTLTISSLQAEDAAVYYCQQYHELALSFGGGTKVEIK showed 0.75, 0.99, 0.79 (controls 2 of 9). Variant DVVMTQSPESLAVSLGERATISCKSSQSVLYESRNKNSVAWYQQKAGQPPKLLIYWISTRESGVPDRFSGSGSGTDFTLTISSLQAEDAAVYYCWQYHHLPLSFGGGTKVEIK gave nd, nd, nd (controls 0 of 9). Variant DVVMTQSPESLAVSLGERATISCKSSQSVLYESRNKNSVAWYQQKAGQPPKLLIYWASMRHSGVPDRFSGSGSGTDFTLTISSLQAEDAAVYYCQQYHTLPLSFGGGTKVEIK gave 1.79, 1.65, 1.95 (controls 2 of 9). Variant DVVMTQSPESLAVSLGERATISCKSSQSVLYESRNKNSVAWYQQKAGQPPKLLIYWASTRESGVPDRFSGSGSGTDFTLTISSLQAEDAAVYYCQMYHLLPLSFGGGTKVEIK gave nd, 4.01, nd (controls 3 of 9). Variant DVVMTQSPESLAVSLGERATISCKSSQSVLYESRNKNSVAWYQQKAGQPPKLLIYWSSTRESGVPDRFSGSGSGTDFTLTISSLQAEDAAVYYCQQYHNLPLSFGGGTKVEIK showed 2.21, 2.08, 2.05 (controls 1 of 9).

The measurements come from Engelhart et al. 2022 (doi:10.1038/s41597-022-01779-4) through the FLAb antibody collection.